Our source for the IC50 values is US20240360179A1, “STAPLED PEPTIDES AND METHODS THEREOF” (FOG PHARMACEUTICALS, INC., priority 2021, published 2024).

Chains of the proteins cited; added tags and fusions are not shown.
UniProt P35222, whole entry: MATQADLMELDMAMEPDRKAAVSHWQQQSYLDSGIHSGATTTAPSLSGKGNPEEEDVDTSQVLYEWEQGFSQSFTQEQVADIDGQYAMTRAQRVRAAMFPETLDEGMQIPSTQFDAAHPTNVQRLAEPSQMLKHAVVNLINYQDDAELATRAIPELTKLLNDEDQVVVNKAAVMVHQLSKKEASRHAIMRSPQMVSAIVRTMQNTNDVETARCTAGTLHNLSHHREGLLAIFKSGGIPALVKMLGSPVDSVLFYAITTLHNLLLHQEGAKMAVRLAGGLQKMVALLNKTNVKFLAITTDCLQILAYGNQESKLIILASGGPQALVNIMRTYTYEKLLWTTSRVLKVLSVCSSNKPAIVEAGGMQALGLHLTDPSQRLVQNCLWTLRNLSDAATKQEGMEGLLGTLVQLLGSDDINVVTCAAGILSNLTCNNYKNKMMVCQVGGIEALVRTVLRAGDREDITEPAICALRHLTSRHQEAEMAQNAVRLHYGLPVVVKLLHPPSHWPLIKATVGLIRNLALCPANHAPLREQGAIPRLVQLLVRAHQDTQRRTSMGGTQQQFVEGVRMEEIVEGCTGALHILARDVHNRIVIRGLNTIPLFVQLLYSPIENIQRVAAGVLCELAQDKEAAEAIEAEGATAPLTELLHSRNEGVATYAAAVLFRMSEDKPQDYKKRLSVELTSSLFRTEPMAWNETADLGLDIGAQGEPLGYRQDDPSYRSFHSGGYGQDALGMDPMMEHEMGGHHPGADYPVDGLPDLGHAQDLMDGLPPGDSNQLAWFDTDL

The assay has as its target T1, full-length B-Catenin (Uniprot ID P35222) (Homo sapiens, UniProt P35222).
T1 construct: 10 nM full-length B-Catenin (Uniprot ID P35222)
Description: biochemical. Type of assay: binding. To be noted: beta-Catenin FP IC50 (nM), competition fluorescence polarization.
On to `CC(=O)N1CCC[C@]12CC=CCCCC1(CCCC=CCCCOC(=O)N3CC[C@@]4(C3)NC(=O)[C@H](CCCC(=O)NCCCC[C@@H](C(=O)N[C@@H](C)C(N)=O)NC(=O)[C@H](Cc3csc5ccccc35)NC(=O)[C@H](Cc3ccccc3C(F)(F)F)NC4=O)NC(=O)[C@H](Cc3ccccc3)NC(=O)[C@H](C)NC(=O)[C@H](C)NC(=O)[C@H](Cc3cccc(C(=O)O)c3)NC(=O)[C@H](CC(=O)O)NC1=O)NC(=O)[C@H](CC(C)(C)C)NC(=O)[C@H](CC(=O)O)NC2=O` (relative stereo) [I-186, Ac-PL3-Asp-Npg-B5-Asp-3COOHF-Ala-Ala-Phe-hGlnR*3-PyrS2-2F3MeF-BztA-Lys*3-Ala-NH2], for which the IC50 was < 50 nM.

Turning to `CC(=O)N1CCC[C@]12CC=CCCCC1(CCCC=CCCCOC(=O)N3CC[C@@]4(C3)NC(=O)[C@H](CCCCN(C(C)C)C(=O)CC[C@@H](C(=O)N[C@@H](C)C(N)=O)NC(=O)[C@H](Cc3csc5ccccc35)NC(=O)[C@H](Cc3ccsc3)NC4=O)NC(=O)[C@H](Cc3ccccc3)NC(=O)[C@H](C)NC(=O)[C@H](C)NC(=O)[C@H](Cc3cccc(C(=O)O)c3)NC(=O)[C@H](CC(=O)O)NC1=O)NC(=O)[C@H](CC(C)(C)C)NC(=O)[C@H](CC(=O)O)NC2=O` (relative stereo) [I-190, Ac-PL3-Asp-Npg-B5-Asp-3COOHF-Ala-Ala-Phe-iPrLys*3-PyrS2-3Thi-BztA-GlnR*3-Ala-NH2], the IC50 is < 50 nM.

With `CC(=O)N1CCC[C@]12CC=CCCCC1(CCCC=CCCCOC(=O)N3CC[C@@]4(C3)NC(=O)[C@H](CCC(=O)N(C(C)C)CCCC[C@@H](C(=O)N[C@@H](C)C(N)=O)NC(=O)[C@H](Cc3csc5ccccc35)NC(=O)[C@H](Cc3ccccc3C(F)(F)F)NC4=O)NC(=O)[C@H](Cc3ccccc3)NC(=O)[C@H](C)NC(=O)[C@H](C)NC(=O)[C@H](Cc3cccc(C(=O)O)c3)NC(=O)[C@H](CC(=O)O)NC1=O)NC(=O)[C@H](CC(C)(C)C)NC(=O)[C@H](CC(=O)O)NC2=O` (relative stereo) [I-192, Ac-PL3-Asp-Npg-B5-Asp-3COOHF-Ala-Ala-Phe-GlnR*3-PyrS2-2F3MeF-BztA-iPrLys*3-Ala-NH2], the 50% inhibitory concentration (IC50) was < 50 nM.

For `CC(=O)N1CCC[C@]12CC=CCCCC1(CCCC=CCCCOC(=O)N3CC[C@@]4(C3)NC(=O)[C@H](CCCCNC(=O)CC[C@@H](C(=O)N[C@@H](C)C(N)=O)NC(=O)[C@H](Cc3csc5ccccc35)NC(=O)[C@H](Cc3ccccc3C(F)(F)F)NC4=O)NC(=O)[C@H](Cc3ccccc3)NC(=O)[C@H](C)NC(=O)C(C)(C)NC(=O)[C@H](Cc3cc(C(=O)O)cc(C(F)(F)F)c3)NC(=O)[C@H](CC(=O)O)NC1=O)NC(=O)[C@H](CC(C)(C)C)NC(=O)[C@H](CC(=O)O)NC2=O` (relative stereo) [I-206, Ac-PL3-Asp-Npg-B5-Asp-5F3Me3COOHF-Aib-Ala-Phe-Lys*3-PyrS2-2F3MeF-BztA-GlnR*3-Ala-NH2], the IC50 is < 50 nM.

For the compound `CC(=O)N1CCC[C@]12CC=CCCCC1(CCCC=CCCCOC(=O)N3CC[C@@]4(C3)NC(=O)[C@H](CCCCNC(=O)CC[C@@H](C(=O)N[C@@H](C)C(N)=O)NC(=O)[C@H](Cc3csc5ccccc35)NC(=O)[C@H](Cc3ccccc3C(F)(F)F)NC4=O)NC(=O)[C@H](Cc3ccccc3)NC(=O)[C@H](C)NC(=O)C(C)(C)NC(=O)[C@@H](CCC(=O)O)NC(=O)[C@H](CC(=O)O)NC1=O)NC(=O)[C@H](CC(C)(C)C)NC(=O)[C@H](CC(=O)O)NC2=O` (relative stereo) [I-215, Ac-PL3-Asp-Npg-B5-Asp-dGlu-Aib-Ala-Phe-Lys*3-PyrS2-2F3MeF-BztA-GlnR*3-Ala-NH2], the IC50 is < 50 nM.

With `CC(=O)N1CCC[C@]12CC=CCCCC1(CCCC=CCCCOC(=O)N3CC[C@@]4(C3)NC(=O)[C@H](CCCCNC(=O)CC[C@@H](C(=O)N[C@@H](C)C(N)=O)NC(=O)[C@H](Cc3csc5ccccc35)NC(=O)[C@H](Cc3ccccc3C(F)(F)F)NC4=O)NC(=O)[C@H](Cc3ccccc3)NC(=O)[C@H](C)NC(=O)C(C)(C)NC(=O)[C@H](CC(C)C)NC(=O)[C@H](CC(=O)O)NC1=O)NC(=O)[C@H](CC(C)(C)C)NC(=O)[C@H](CC(=O)O)NC2=O` (relative stereo) [I-219, Ac-PL3-Asp-Npg-B5-Asp-Leu-Aib-Ala-Phe-Lys*3-PyrS2-2F3MeF-BztA-GlnR*3-Ala-NH2], the IC50 lay in the range of 200 to 750 nM.

For `CC(=O)N1CCC[C@]12CC=CCCCC1(CCCC=CCCCOC(=O)N3CC[C@@]4(C3)NC(=O)[C@H](CCCCNC(=O)CC[C@@H](C(=O)N[C@@H](C)C(=O)N[C@@H](CO)C(N)=O)NC(=O)[C@H](Cc3csc5ccccc35)NC(=O)[C@H](Cc3ccccc3C(F)(F)F)NC4=O)NC(=O)[C@H](Cc3ccccc3)NC(=O)[C@H](C)NC(=O)C(C)(C)NC(=O)[C@H](Cc3cccc(C(=O)O)c3)NC(=O)[C@H](CC(=O)O)NC1=O)NC(=O)[C@H](CC(C)(C)C)NC(=O)[C@H](CC(=O)O)NC2=O` (relative stereo) [I-230, Ac-PL3-Asp-Npg-B5-Asp-3COOHF-Aib-Ala-Phe-Lys*3-PyrS2-2F3MeF-BztA-GlnR*3-Ala-Ser-NH2], the IC50 was < 50 nM.

In the case of `CC(=O)N1CCC[C@]12CC=CCCCC1(CCCC=CCCCOC(=O)N3CC[C@@]4(C3)NC(=O)[C@H](CCCC(=O)N3CCC(CC3)C[C@@H](C(=O)N[C@@H](C)C(N)=O)NC(=O)[C@H](Cc3csc5ccccc35)NC(=O)[C@H](Cc3ccsc3)NC4=O)NC(=O)[C@H](Cc3ccccc3)NC(=O)[C@H](C)NC(=O)[C@H](C)NC(=O)[C@H](Cc3cccc(C(=O)O)c3)NC(=O)[C@H](CC(=O)O)NC1=O)NC(=O)[C@H](CC(C)(C)C)NC(=O)[C@H](CC(=O)O)NC2=O` (relative stereo) [I-260, Ac-PL3-Asp-Npg-B5-Asp-3COOHF-Ala-Ala-Phe-hGlnR*3-PyrS2-3Thi-BztA-4PipA*3-Ala-NH2], the IC50 was < 50 nM.

With `CC(=O)N1CCC[C@]12CC=CCCCC1(CCCC=CCCCOC(=O)N3CC[C@@]4(C3)NC(=O)[C@H](CCCC(=O)N3CCC(CC3)C[C@@H](C(=O)N[C@@H](C)C(N)=O)NC(=O)[C@H](Cc3csc5ccccc35)NC(=O)[C@H](Cc3ccccc3C(F)(F)F)NC4=O)NC(=O)[C@H](Cc3ccccc3)NC(=O)[C@H](C)NC(=O)[C@H](C)NC(=O)[C@H](Cc3cccc(C(=O)O)c3)NC(=O)[C@H](CC(=O)O)NC1=O)NC(=O)[C@H](CC(C)(C)C)NC(=O)[C@H](CC(=O)O)NC2=O` (relative stereo) [I-261, Ac-PL3-Asp-Npg-B5-Asp-3COOHF-Ala-Ala-Phe-hGlnR*3-PyrS2-2F3MeF-BztA-4PipA*3-Ala-NH2], the IC50 was < 50 nM.

With `CC(=O)N1CCC[C@]12CC=CCCCC1(CCCC=CCCCOC(=O)N3CC[C@@]4(C3)NC(=O)[C@H](CCCCn3cc(nn3)COC[C@@H](C(=O)N[C@@H](C)C(N)=O)NC(=O)[C@H](Cc3csc5ccccc35)NC(=O)[C@H](Cc3ccsc3)NC4=O)NC(=O)[C@H](Cc3ccccc3)NC(=O)[C@H](C)NC(=O)[C@H](C)NC(=O)[C@H](Cc3cccc(C(=O)O)c3)NC(=O)[C@H](CC(=O)O)NC1=O)NC(=O)[C@H](CC(C)(C)C)NC(=O)[C@H](CC(=O)O)NC2=O` (relative stereo) [I-264, Ac-PL3-Asp-Npg-B5-Asp-3COOHF-Ala-Ala-Phe-TriAzLys*3-PyrS2-3Thi-BztA-sCH2S*3-Ala-NH2], the IC50 is < 50 nM.

`CC(=O)N1CCC[C@]12CC=CCCCC1(CCCC=CCCCOC(=O)N3CC[C@@]4(C3)NC(=O)[C@H](CCCCNC(=O)CC[C@@H](C(=O)N[C@@H](C)C(N)=O)NC(=O)[C@H](Cc3csc5ccccc35)NC(=O)[C@H](Cc3ccccc3C(F)(F)F)NC4=O)NC(=O)[C@H](Cc3ccccc3)NC(=O)[C@H](C)NC(=O)C(C)(C)NC(=O)[C@H](Cc3cccc(C(=O)O)c3)NC(=O)[C@H]([C@H](C)C(=O)O)NC1=O)NC(=O)[C@H](CC(C)(C)C)NC(=O)[C@H](CC(=O)O)NC2=O` (relative stereo) [I-286, Ac-PL3-Asp-Npg-B5-SbMeAsp-3COOHF-Aib-Ala-Phe-Lys*3-PyrS2-2F3MeF-BztA-GlnR*3-Ala-NH2]: the IC50 is < 50 nM.

In the case of `CC(=O)N1CCC[C@]12CC=CCCCC1(CCCC=CCCCOC(=O)N3CC[C@@]4(C3)NC(=O)[C@H](CCCCNC(=O)CC[C@@H](C(=O)N[C@@H](C)C(N)=O)NC(=O)[C@H](Cc3csc5ccccc35)NC(=O)[C@H](Cc3ccccc3C(F)(F)F)NC4=O)NC(=O)[C@H](Cc3ccccc3)NC(=O)[C@H](C)NC(=O)C(C)(C)NC(=O)[C@H](Cc3cccc(C(=O)O)c3)NC(=O)[C@H](CC(=O)O)NC1=O)NC(=O)[C@H](CC(C)(C)C)NC(=O)[C@@](C)(CC(=O)O)NC2=O` (relative stereo) [I-290, Ac-PL3-aMeDAsp-Npg-B5-Asp-3COOHF-Aib-Ala-Phe-Lys*3-PyrS2-2F3MeF-BztA-GlnR*3-Ala-NH2], the concentration for half-maximal inhibition (IC50) is 50 to 200 nM.

For the compound `CC(=O)N1CCC[C@]12CC=CCCCC1(CCCC=CCCCOC(=O)N3CC[C@@]4(C3)NC(=O)[C@H](CCCCNC(=O)CC[C@@H](C(=O)N[C@@H](C)C(N)=O)NC(=O)[C@H](Cc3csc5ccccc35)NC(=O)[C@H](Cc3ccsc3)NC4=O)NC(=O)[C@H](Cc3ccccc3)NC(=O)[C@H](C)NC(=O)C(C)(C)NC(=O)[C@H](Cc3cccc(C(=O)O)c3)NC(=O)[C@H](CC(=O)O)NC1=O)NC(=O)C(C)(C)NC(=O)[C@H](CC(=O)O)NC2=O` (relative stereo) [I-308, Ac-PL3-Asp-Aib-B5-Asp-3COOHF-Aib-Ala-Phe-Lys*3-PyrS2-3Thi-BztA-GlnR*3-Ala-NH2], the IC50 was < 50 nM.

For `CC(=O)N1CCC[C@]12CC=CCCCC1(CCCC=CCCCOC(=O)N3CC[C@@]4(C3)NC(=O)[C@H](CCCCNC(=O)CC[C@@H](C(=O)N[C@@H](C)C(N)=O)NC(=O)[C@H](Cc3csc5ccccc35)NC(=O)[C@H](Cc3ccsc3)NC4=O)NC(=O)[C@H](Cc3ccccc3)NC(=O)[C@H](C)NC(=O)C(C)(C)NC(=O)[C@H](Cc3cccc(C(=O)O)c3)NC(=O)[C@H](CC(=O)O)NC1=O)NC(=O)[C@H](c1ccccc1)NC(=O)[C@H](CC(=O)O)NC2=O` (relative stereo) [I-309, Ac-PL3-Asp-Phg-B5-Asp-3COOHF-Aib-Ala-Phe-Lys*3-PyrS2-3Thi-BztA-GlnR*3-Ala-NH2], the IC50 is < 50 nM.

A word on the IC50: it is the concentration that inhibits the measured activity by half. A lower IC50 goes with greater potency.
